# From US20230257727
# T1: Target peptide labeled with succinic anhydride (succinic acid-labeled AAGVAMPGAEDDVVGSGSK(N3))
# T1 chain: AAGVAMPGAEDDVVGSGSK
# Biological target: T1, Target peptide labeled with succinic …
protein,measurement,value
Modified cleavase N191S/N306G/D650S (SEQ ID NO: 39) (protein) GEGMWVPQQLPEIAGPLKKAGLKLSPQQISDLTGDPMGAVVALGGCTASFVSPNGLVVTNHHCAYGAIQLNSTAENNLIKNGFNAPTTADEVSAGPNARVFVLDEITDVTKDAKAAIAAAGDDALARTKALEAFEKKLIADCEAEAGFRCRLYSFSGGNTYRLFKNLEIKDVRLAYAPPGSVGKFGGDIDSWMWPRHTGDFAFYRAYVGKDGKPAAFSKDNVPYQPKHWLKFADQPLGAGDFVMVAGYPGSTNRYALAAEFDNTAQWTYPTIARHYKNQIAMVEAAGKQNADIQVKYAATMAGWNGTSKNYDGQLEGFKRIDAAGQKLREEAAVLGWLKGQGAKGQPALDAHAKLLDLLEQSKATRDRDLTLALFNNTAMLGSATQLYRLSIEREKPNAERESGYQERDLPAIEGGLKQLERRYVAAMDRQLQEYWLNEYIKLPADQRVAAVDAWLGGNDAAAVKRALDRLAGTKLGSTEERLKWFAADRKAFEASNDPAIQYAVAVMPTLLKLEQERKTRAGENLAARPVYLQALADYKKSQGEFVYPDANLSLRITFGNVMGYAPKDGMEYTPFTTLEGVVAKETGQDPFDSPKALLDAVAAKRYGGLEDKRIGSVPVNYLSDLDITGGNSGSPVLDAHGKLVGLAFSGNWESVSSNWVFDPKMTRMIAVDGRYLRWIMQEVYPAPQLLKEMNVGK,Product Removed by Modified Cleavase,Succinic acid-labeled P1
